Test results: patent US20140234420A1, “Method of Treating Skin Disorders using Nanoscale Delivery Devices and Transdermal Enhancing Compositions” (priority 2008, published 2014)

Assay: Encapsulation (entrapment) efficiency
Assay type: physicochemical
Settings: drug encapsulated in zein/lecithin/squalene nanoemulsions
Protocol: Detection wavelength: 340 nm; Injection volume: 50 μl: Run time: 10 min. […] The resulting solution was centrifuged at 5000 rpm for 5 min. […] The resulting solution was centrifuged 5000 rpm for 5 min. […] Further the size was much more uniform in case of nanoemulsions as evidenced from the low polydispersity index (PDI). The zeta potential was high in case of nanoemulsions signifying the high physical stability of these nanocarriers. […] In vitro release of MTX from the formulations in phosphate buffer (pH 7.4) was studied using UV-spectrophotometry. […] Benzoyl peroxide content was measured using HPLC.

- % EE: 81.4 ± 2.45%
Structure (SMILES): CC1=C(/C=C/C(C)=C/C=C/C(C)=C/C(=O)O)C(C)(C)CCC1 [Retinoic acid]
